Laboratory results published in ChEMBL document CHEMBL3232832, “Derivatives of dibenzothiophene for positron emission tomography imaging of α7-nicotinic acetylcholine receptors” (J Med Chem, 2013).

Amino acid sequences for entries named in this document (tags omitted). Residues count along the entry.
UniProt Q05941, 23-502 limits assumed: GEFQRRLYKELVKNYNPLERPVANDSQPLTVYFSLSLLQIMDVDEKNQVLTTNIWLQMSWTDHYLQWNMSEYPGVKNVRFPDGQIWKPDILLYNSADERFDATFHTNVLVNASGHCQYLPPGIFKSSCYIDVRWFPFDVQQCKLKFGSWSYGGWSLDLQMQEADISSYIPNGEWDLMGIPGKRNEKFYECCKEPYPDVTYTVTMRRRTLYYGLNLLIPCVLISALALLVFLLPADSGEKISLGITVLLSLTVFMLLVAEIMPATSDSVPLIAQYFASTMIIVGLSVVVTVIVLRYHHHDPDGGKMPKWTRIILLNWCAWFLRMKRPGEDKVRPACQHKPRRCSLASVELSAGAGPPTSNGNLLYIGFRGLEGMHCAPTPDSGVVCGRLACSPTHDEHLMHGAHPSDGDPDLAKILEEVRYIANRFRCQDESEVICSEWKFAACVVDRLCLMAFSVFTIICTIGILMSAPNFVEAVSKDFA

Key:
[1] = biological target: Neuronal acetylcholine receptor subunit alpha-7 (Rattus norvegicus, UniProt Q05941); experiment: Binding affinity to rat brain alpha7 nAChR
[2] = Ratio of drug uptake in cortex to cerebellum in mouse; format: ADME, organism-based; details: in vivo

Which results are given for [11CH3]Nc1cccc(C(=O)O[C@H]2CN3CCC2CC3)c1?
Ki [1]: 40.6 nM; Ratio [2]: 0.4
